This is a selection; strong and weak results do not stand in their true shares. Some structures show a salt or complex split into parts, the way the source records it. A structure can be active in one record and inactive in another. Activity calls are given as the source filed them. No stated cut-off is given here; in the data, active means growth inhibition above about 70%; inactive means the rest.
Experiments:
[1] = NCI Yeast Anticancer Drug Screen. Data for the rad50 strain (AID 155);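 further: 0% = growth of vehicle-only cultures of the same strain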; conditions: S. cerevisiae rad50 strain growth inhibition, hits give high values
[2] = NCI Yeast Anticancer Drug Screen. Data for the mec2-1 strain (AID 157); conditions: S. cerevisiae mec2-1 strain, hits give high values
[3] = NCI Yeast Anticancer Drug Screen. Data for the sgs1 mgt1 strain (AID 161);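 further: 0% = growth of cultures given vehicle only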; conditions: S. cerevisiae sgs1 mgt1 strain, hits give high values
[4] = NCI Yeast Anticancer Drug Screen. Data for the cln2 rad14 strain (AID 165);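 further: 0% = growth equal to vehicle treated cultures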; conditions: S. cerevisiae cln2 rad14 strain, hits give high values
[5] = NCI Yeast Anticancer Drug Screen. Data for the bub3 strain (AID 167); conditions: S. cerevisiae bub3 mutant strain, hits give high values
[6] = NCI Yeast Anticancer Drug Screen. Data for the mlh1 rad18 strain (AID 175); conditions: S. cerevisiae mlh1 rad18 strain growth inhibition, hits give high values
[7] = NCI Yeast Anticancer Drug Screen. Data for the wt1 strain (AID 149);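 further: 0% = growth of vehicle-treated wt1 cultures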; conditions: S. cerevisiae wt1 strain (SPY 50644) growth inhibition, hits give high values
Method in brief: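 Using yeast strain wt1, compound-induced growth inhibition was determined against vehicle-treated cultures.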

[8] = at 5.0 µM (retest, dose inferred, filed as 0.5)
[9] = at 50.0 µM (retest, dose inferred, filed as 5.0)

Measured: growth inhibition

CCCCCCCCCCCCCNCC(C)O.O=[N+]([O-])c1cc([N+](=O)[O-])c(O)c([N+](=O)[O-])c1 (stereo unspecified)
inactive: [1]; [8] 1% | [1]; [9] 35% | [1]; at 50.0 µM 67.2% | [2]; [8] -3% | [2]; [9] 4% | [2]; at 50.0 µM 20.2% | [3]; [8] 1% | [3]; [9] 55% | [4]; [8] 10% | [4]; [9] 12% | [4]; at 50.0 µM 5.2% | [5]; [8] 0% | [5]; [9] 18% | [5]; at 50.0 µM 18.9% | [6]; [8] -13% | [6]; [9] 33% | [6]; at 50.0 µM 63.5%
active: [3]; at 50.0 µM 73.9%

CCC(C)(C)CNc1c([N+](=O)[O-])cc([N+](=O)[O-])cc1[N+](=O)[O-]
active: [1]; [9] 89% | [1]; at 50.0 µM 97% | [2]; [9] 87% | [2]; at 50.0 µM 81.5% | [3]; [9] 99% | [3]; at 50.0 µM 99.4% | [5]; [9] 88% | [5]; at 50.0 µM 98% | [6]; [9] 92% | [6]; at 50.0 µM 97.5%
inactive: [1]; [8] 30% | [2]; [8] 30% | [3]; [8] 50% | [4]; [8] 13% | [4]; [9] 43% | [4]; at 50.0 µM 40.6% | [5]; [8] 28% | [6]; [8] 40%

O=C1c2cc([N+](=O)[O-])ccc2-c2c1cc([N+](=O)[O-])cc2[N+](=O)[O-].Oc1cccc2c1ccc1ccc3ccccc3c12
inactive: [1]; [8] 23% | [1]; at 50.0 µM 69.3% | [2]; [8] 20% | [2]; at 50.0 µM 57.4% | [3]; [8] 14% | [4]; [8] 4% | [5]; [8] 24% | [6]; at 50.0 µM 63.5%
active: [1]; [9] 96% | [2]; [9] 86% | [3]; [9] 99% | [3]; at 50.0 µM 99% | [4]; [9] 98% | [4]; at 50.0 µM 99.1% | [5]; [9] 97% | [5]; at 50.0 µM 99.1% | [6]; [8] 86% | [6]; [9] 98%

O=[N+]([O-])c1nc(Br)n(F)c1[N+](=O)[O-]
inactive: [1]; [8] 21% | [1]; [9] 29% | [1]; at 50.0 µM 25.4% | [2]; [8] 18% | [2]; [9] 33% | [2]; at 50.0 µM 17.3% | [3]; [8] 28% | [3]; [9] 66% | [4]; [8] 19% | [4]; [9] -3% | [5]; [8] 18% | [5]; [9] 3% | [6]; [8] 29% | [6]; [9] 49% | [6]; at 50.0 µM 34.6%
active: [3]; at 50.0 µM 91.7% | [4]; at 50.0 µM 91% | [5]; at 50.0 µM 89.2%

C[S+](C)C1CCCCCCC1Br.O=[N+]([O-])c1cc([N+](=O)[O-])c(S(=O)(=O)[O-])c([N+](=O)[O-])c1
inactive: [1]; [8] 4% | [1]; [9] 21% | [1]; at 50.0 µM 48.5% | [2]; [8] 17% | [2]; [9] 54% | [2]; at 50.0 µM 23.8% | [3]; [8] -7% | [3]; [9] 35% | [4]; [8] -9% | [4]; [9] 21% | [4]; at 50.0 µM 49% | [5]; [8] 12% | [5]; [9] 43% | [5]; at 50.0 µM 43.1% | [6]; [8] 24% | [6]; [9] 49% | [6]; at 50.0 µM 43.5%
active: [3]; at 50.0 µM 73.5%

Cc1ccc(C2=CC=C(c3ccccc3)C2)cc1.O=[N+]([O-])c1cc([N+](=O)[O-])cc([N+](=O)[O-])c1
inactive: [1]; [8] 36% | [2]; [8] 34% | [3]; [8] 51% | [4]; [8] 8% | [6]; [8] 28%
active: [1]; [9] 98% | [1]; at 50.0 µM 98.8% | [2]; [9] 98% | [2]; at 50.0 µM 99.5% | [3]; [9] 99% | [3]; at 50.0 µM 99.4% | [4]; [9] 97% | [4]; at 50.0 µM 99.1% | [5]; [8] 73% | [5]; [9] 98% | [5]; at 50.0 µM 99.1% | [6]; [9] 99% | [6]; at 50.0 µM 99.2%

O=[N+]([O-])C1([N+](=O)[O-])CCC([N+](=O)[O-])([N+](=O)[O-])c2nn(-c3ccccc3)nc21
active: [1]; [9] 85% | [3]; [9] 77% | [3]; at 50.0 µM 78.7% | [6]; [9] 81% | [6]; at 50.0 µM 74.7%
inactive: [1]; [8] 21% | [1]; at 50.0 µM 69% | [2]; [8] 16% | [2]; [9] 65% | [2]; at 50.0 µM 39.2% | [3]; [8] 28% | [4]; [8] 17% | [4]; [9] 59% | [4]; at 50.0 µM 66.5% | [5]; [8] 18% | [5]; [9] 69% | [5]; at 50.0 µM 65% | [6]; [8] 28%

[Au].[C-]#N.[C-]#N
active: [2]; at 33.0 µM 92% | [2]; [9] 98% | [2]; at 50.0 µM 87.2% | [2]; at 100.0 µM 95%
inactive: [7]; at 1.2 µM 16% | [7]; at 3.7 µM 7% | [7]; at 11.0 µM 7% | [7]; at 33.0 µM 5% | [7]; at 100.0 µM 16% | [1]; at 1.2 µM 6% | [1]; at 3.7 µM -9% | [1]; [8] 18% | [1]; at 11.0 µM -10% | [1]; at 33.0 µM 4% | [1]; [9] 41% | [1]; at 50.0 µM 6.75% | [1]; at 100.0 µM 11% | [2]; at 1.2 µM -8% | [2]; at 3.7 µM 3% | [2]; [8] 28% | [2]; at 11.0 µM 34% | [3]; [8] 17% | [3]; [9] 48% | [3]; at 50.0 µM -9.1% | [4]; [8] 4% | [4]; [9] 29% | [4]; at 50.0 µM -1.2% | [5]; at 1.2 µM -2% | [5]; at 3.7 µM -9% | [5]; [8] -8%

— PubChem BioAssay (NCI)
